The numbers were not newly measured in patent US20210346497A1, “Methods of Treating Cancer” (Tesaro, Inc., priority 2018, published 2021), which cites them from elsewhere.

The subject of the series is Ewing's sarcoma, ALL, NSCLC, SCLC cell lines and tumor cell lines with homozygous inactivation of the ATM gene. Conditions: selected Ewing's sarcoma, ATM-inactivated tumor cell lines.

On to `Cc1ccc(S(=O)(=O)O)cc1.NC(=O)c1cccc2cn(-c3ccc([C@@H]4CCCNC4)cc3)nc12` [Niraparib, (3S)-3-[4-{7-(aminocarbonyl)-2H-indazol-2-yl}phenyl]piperidine], for which the cytotoxicity entry is given as “selectively cytotoxic”.
